Chains of the proteins cited; added tags and fusions are not shown. Lines headed by an entry give the natural chain unless they say otherwise; changes in a name come on top.
UniProt Q99572: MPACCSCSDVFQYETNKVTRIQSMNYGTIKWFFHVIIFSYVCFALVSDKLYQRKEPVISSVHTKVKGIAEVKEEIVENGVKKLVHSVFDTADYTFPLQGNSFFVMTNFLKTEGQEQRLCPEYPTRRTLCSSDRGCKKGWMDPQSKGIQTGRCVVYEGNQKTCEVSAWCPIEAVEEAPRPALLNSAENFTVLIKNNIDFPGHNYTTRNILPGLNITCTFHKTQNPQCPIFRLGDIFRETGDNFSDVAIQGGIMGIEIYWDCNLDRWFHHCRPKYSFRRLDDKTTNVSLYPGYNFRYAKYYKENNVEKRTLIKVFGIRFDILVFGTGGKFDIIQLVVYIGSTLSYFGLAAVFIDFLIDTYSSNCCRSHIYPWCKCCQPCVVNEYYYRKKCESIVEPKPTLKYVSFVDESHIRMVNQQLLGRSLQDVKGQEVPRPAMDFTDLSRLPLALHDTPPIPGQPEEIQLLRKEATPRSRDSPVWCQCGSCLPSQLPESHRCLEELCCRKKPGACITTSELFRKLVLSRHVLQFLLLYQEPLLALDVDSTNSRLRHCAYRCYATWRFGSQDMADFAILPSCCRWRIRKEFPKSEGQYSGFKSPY

According to patent US10053463B2 (Janssen Pharmaceutica NV, priority 2013, dated 2018):

Molecular target: P2X7 (Homo sapiens (Human), UniProt Q99572)
Assay: Radioligand binding, human P2X7-1321N1 cell membranes, tracer tritiated A-804598
Details: Table 2
Experimental: P2X7 Antagonism in Recombinant Human P2X7 Cells or Recombinant Rat P2X7 Cells: (a) Ca^2+ Flux and (b) Radioligand Binding
(b) Radioligand Binding: human or rat P2X7-1321N1 cells were collected and frozen @−80° C. On the day of the experiment, cell membrane preparations were made according to standard published methods. The total assay volume was 100 μl:10 μl compound (10×)+(b) 40 μl tracer (2.5×)+50 μl membrane (2×). The tracer used for the assay was tritiated A-804598. The compound can be prepared as described in the literature. (Donnelly-Roberts, D. Neuropharmacology 2008, 56 (1), 223-229.) Compounds, tracer and membranes were incubated for 1 hour @ 4° C. The assay was terminated by filtration (GF/B filters pre-soaked with 0.3% PEI) and washed with washing buffer (Tris-HCl 50 mM). The IC50 generated in the binding assay was corrected for tracer concentration and affinity of the tracer to derive at the affinity (K) of the test compounds. […] Data are analyzed and graphed on Graphpad Prism 5. For analysis, each concentration point is averaged from triplicate values and the averaged values are plotted on Graphpad Prism.

## O=C1c2nnc(-c3cnccn3)n2C[C@H](C2CC2)N1Cc1cccc(C(F)(F)F)c1Cl (single isomer, unassigned) [Example 63, (6S*)-7-[2-Chloro-3-(trifluoromethyl)benzyl]-6-cyclopropyl-3-pyrazin-2-yl-6,7-dihydro[1,2,4]triazolo[4,3-a]pyrazin-8(5H)-one]
  Ki: 3.2 nM
